Measured values from PubChem BioAssay (NCI).
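Cultured in 96-well plates, cells were exposed to test compound for 48 hours across five concentrations. At the TGI there is no net growth.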

What was measured:
Assay in all cases: NCI anticancer screen, dose series, 48 h
786-0 renal = system: 786-0 renal
A498 renal = system: A498 renal
A549 NSCLC = system: A549 NSCLC
ACHN renal = system: ACHN renal
BT-549 breast = system: BT-549 breast
CAKI-1 renal = system: CAKI-1 renal
CCRF-CEM leukemia = system: CCRF-CEM leukemia
DU-145 prostate = system: DU-145 prostate
EKVX NSCLC = system: EKVX NSCLC
HCC-2998 colon = system: HCC-2998 colon
HCT-116 colon = system: HCT-116 colon
HCT-15 colon = system: HCT-15 colon
HL-60(TB) leukemia = system: HL-60(TB) leukemia
HOP-62 NSCLC = system: HOP-62 NSCLC
HOP-92 NSCLC = system: HOP-92 NSCLC
HS 578T breast = system: HS 578T breast
HT29 colon = system: HT29 colon
IGROV1 ovarian = system: IGROV1 ovarian
KM12 colon = system: KM12 colon
LOX IMVI melanoma = system: LOX IMVI melanoma
M14 melanoma = system: M14 melanoma
MALME-3M melanoma = system: MALME-3M melanoma
MCF7 breast = system: MCF7 breast
MDA-MB-231 breast = system: MDA-MB-231 breast
MDA-MB-435 = system: MDA-MB-435
MDA-N = system: MDA-N
NCI-H23 lung = system: NCI-H23 lung
NCI-H522 lung = system: NCI-H522 lung
NCI/ADR-RES ovarian = system: NCI/ADR-RES ovarian
OVCAR-3 ovarian = system: OVCAR-3 ovarian
OVCAR-4 ovarian = system: OVCAR-4 ovarian
OVCAR-5 ovarian = system: OVCAR-5 ovarian
OVCAR-8 ovarian = system: OVCAR-8 ovarian
PC-3 prostate = system: PC-3 prostate
RXF 393 renal = system: RXF 393 renal
SF-268 CNS = system: SF-268 CNS
SK-MEL-2 melanoma = system: SK-MEL-2 melanoma
SK-MEL-28 melanoma = system: SK-MEL-28 melanoma
SK-OV-3 ovarian = system: SK-OV-3 ovarian
SN12C renal = system: SN12C renal
SNB-19 CNS = system: SNB-19 CNS
SW-620 colon = system: SW-620 colon
T-47D breast = system: T-47D breast
TK-10 renal = system: TK-10 renal
U251 CNS = system: U251 CNS
UACC-257 melanoma = system: UACC-257 melanoma
UACC-62 melanoma = system: UACC-62 melanoma
UO-31 renal = system: UO-31 renal

Measured: TGI

COc1ccc2c3c1O[C@H]1C4(OC)C=CC5(C6C(=O)NNC(=O)C64)C(C2)N(C)CCC315 (stereo partly drawn)
93.5 µM: SK-MEL-28 melanoma
> 100 µM: all other assays above
